{"source": "patent US20150159134A1", "about": "“METHOD FOR PRODUCING RETINAL PIGMENT EPITHELIAL CELLS” (PFIZER LIMITED, priority 2013, published 2015)", "molecules": {"B1": {"name": "BMP2/6: BMP2/6 heterodimer, BMP pathway activator (protein, UniProt P12643 283-396; P22004 375-513, looked up)", "Bone morphogenetic protein 2": "QAKHKQRKRLKSSCKRHPLYVDFSDVGWNDWIVAPPGYHAFYCHGECPFPLADHLNSTNHAIVQTLVNSVNSKIPKACCVPTELSAISMLYLDENEKVVLKNYQDMVVEGCGCR", "Bone morphogenetic protein 6": "SASSRRRQQSRNRSTQSQDVARVSSASDYNSSELKTACRKHELYVSFQDLGWQDWIIAPKGYAANYCDGECSFPLNAHMNATNHAIVQTLVHLMNPEYVPKPCCAPTKLNAISVLYFDDNSNVILKKYRNMVVRACGCH", "modifications": "heterodimer"}}, "tested_on": "Shef-1 hESCs", "assay": "Alternative BMP pathway activators, MITF expression (immunostaining, qPCR)", "format": "cell-based, human", "settings": "Day 13; BMPs Day 6-9: 50-200 ng/ml BMP4/7 heterodimer, 200 ng/ml BMP4, 300 ng/ml BMP7, 100 ng/ml BMP2/6", "experimental": "Shef-1 hESCs were seeded onto Matrigel coated 96-well plates at a density of 125000 cells/cm^2. […] On Day 6, 50-200 ng/ml BMP4/7 heterodimer or 200 ng/ml BMP4, 300 ng/ml BMP7, 100 ng/ml BMP2/6 were added for a period of 3 days. On Day 9, BMPs were withdrawn and cells maintained in DMEM KSRXF alone for 4 days. On Day 13, MITF expression was tested by Immunostaining and qPCR analysis."}
{"molecule": "B1", "values": [{"measurement": "MITF expression (immunostaining and qPCR)", "result": "induced expression of MITF to a similar level"}]}
